# Values quoted from earlier work as cited in US20220144913A1, “PERSONALIZED AND TIMED RELEASE OF BIOMOLECULES” (The General Hospital Corporation, priority 2019, published 2022).
# Conditions: cited from earlier work
substance,measurement,setting,value
Gaussia princeps luciferase [GLUC],half-life,mouse circulation,5 to 10 min
same,half-life,mouse plasma,~20 min

# Where two headings read alike, the source gives them in different places.
